Assay results published in article PMC12136037 (2025).

System: ~100 representative kinases
Assay: DSF 100 kinase selectivity screen

SMILES: CN[C@@H]1C[C@H]2O[C@@](C)([C@@H]1OC)n1c3ccccc3c3c4c(c5c6ccccc6n2c5c31)C(=O)NC4 [Staurosporine]
- # >5K: 76
- S(5K): 0.691
